The target in the test is Dopamine D1 and D2 receptor (Homo sapiens) (UniProt P14416+P21728). Nature of the test: Ratio of binding affinity towards D2 to D1 receptor. Type of test: protein assay.

Amino acid sequences for entries named in this document (tags omitted).
UniProt P14416, whole entry, looked up: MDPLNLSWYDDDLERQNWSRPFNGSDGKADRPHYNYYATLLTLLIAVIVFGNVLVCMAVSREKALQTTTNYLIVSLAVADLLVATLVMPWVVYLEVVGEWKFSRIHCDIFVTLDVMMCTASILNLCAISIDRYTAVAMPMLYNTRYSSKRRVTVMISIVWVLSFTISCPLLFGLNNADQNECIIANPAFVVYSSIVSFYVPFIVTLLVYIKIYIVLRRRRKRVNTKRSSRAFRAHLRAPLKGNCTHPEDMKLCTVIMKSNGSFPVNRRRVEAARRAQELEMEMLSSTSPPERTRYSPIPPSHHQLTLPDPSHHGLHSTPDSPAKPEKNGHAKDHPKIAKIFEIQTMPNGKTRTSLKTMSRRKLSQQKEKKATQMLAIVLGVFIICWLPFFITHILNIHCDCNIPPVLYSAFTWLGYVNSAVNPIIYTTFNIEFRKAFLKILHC
UniProt P21728, whole entry, looked up: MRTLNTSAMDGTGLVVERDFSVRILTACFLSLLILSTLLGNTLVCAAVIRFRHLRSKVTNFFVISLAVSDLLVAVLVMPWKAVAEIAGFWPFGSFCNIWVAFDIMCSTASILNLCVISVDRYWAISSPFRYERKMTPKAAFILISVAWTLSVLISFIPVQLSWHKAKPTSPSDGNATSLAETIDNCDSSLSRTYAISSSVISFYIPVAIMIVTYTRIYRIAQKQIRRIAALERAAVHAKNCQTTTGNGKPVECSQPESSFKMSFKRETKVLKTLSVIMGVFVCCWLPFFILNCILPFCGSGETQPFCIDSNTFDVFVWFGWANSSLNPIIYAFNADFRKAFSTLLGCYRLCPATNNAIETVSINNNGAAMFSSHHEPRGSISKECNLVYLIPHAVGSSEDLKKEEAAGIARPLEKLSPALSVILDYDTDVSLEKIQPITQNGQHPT

`CC1(C)CN(C2CC(c3ccsc3)c3ccc(Cl)cc32)CCN1` (stereo in doubt; (+)-54): the Ratio stood at 15.

Source of the values: ChEMBL document CHEMBL1128174, “Enhanced D1 affinity in a series of piperazine ring substituted 1-piperazino-3-arylindans with potential atypical antipsychotic activity” (J Med Chem, 1995).
